Laboratory results: patent publication US7507803B2, “Optimized multi-epitope constructs and uses thereof” (priority 2002, dated 2009)

Experiments:
H2^bxd mice = assay: CTL response after peptide/IFA immunization, in situ ELISA; assay type: in vivo, mouse; conditions: peptide/IFA immunization of H2^bxd mice
Source text: HLA-A1 and -A24 transgenic mice are not currently available. However, a significant degree of similarity exists between the binding motifs of HLA-A24 epitopes and the murine class I K^d. We therefore tested four of the vaccine HLA-A24 epitopes for their capacity to bind purified K^d molecules in vitro and assessed immunogenicity. […] IFN-γ responses after in vitro restimulation ranged from 158.7 to 339.6 SU. […] Thus, the H2^bxd can be used in the absence of HLA-A24 transgenic mice.

HLA transgenic mice = assay: CTL priming in HLA transgenic mice after DNA immunization (in situ IFNγ ELISA or chromium release); conditions: mouse, in vivo
HLA supertype alleles = assay type: binding, human; conditions: A2, A3 or B7 supertype; five most common members

SMILES	Murine Immunogenicity (SU) (H2^bxd mice)	Immunogenicity of the epitope in construct HBV30C (HLA transgenic mice)	XRN (number of supertype alleles bound ≦500 nM) (HLA supertype alleles)
CC[C@H](C)[C@H](NC(=O)[C@H](CCCCN)NC(=O)[C@H](CCC(=O)O)NC(=O)[C@H](C)NC(=O)[C@H](CO)NC(=O)[C@@H]1CCCN1C(=O)[C@@H](NC(=O)[C@H](Cc1ccc(O)cc1)NC(=O)[C@@H](N)CO)[C@@H](C)CC)C(=O)O [CS 252, reference compound]	49.2	–	–
CC(C)C[C@H](NC(=O)[C@@H](N)Cc1ccccc1)C(=O)N1CCC[C@H]1C(=O)N[C@@H](CO)C(=O)N[C@@H](CC(=O)O)C(=O)N[C@@H](Cc1ccccc1)C(=O)N[C@@H](Cc1ccccc1)C(=O)N1CCC[C@H]1C(=O)N[C@@H](CO)C(=O)N[C@H](C(=O)O)C(C)C [core 18]	–	poorly immunogenic	5
CSCC[C@H](NC(=O)[C@H](Cc1ccc(O)cc1)NC(=O)[C@H](CO)NC(=O)[C@H](Cc1ccccc1)NC(=O)[C@H](C)NC(=O)[C@H](CC(C)C)NC(=O)[C@H](CS)NC(=O)[C@H](Cc1c[nH]cn1)NC(=O)[C@@H]1CCCN1C(=O)[C@@H](N)Cc1ccccc1)C(=O)O [pol 530]	–	–	5
